What was measured:
[1] = target: Vascular endothelial growth factor receptor 2 (Homo sapiens, UniProt P35968)
[2] = target: Non-receptor tyrosine-protein kinase TYK2 (Homo sapiens, UniProt P29597); format: cell-based

Amino acid sequences for entries named in this document (tags omitted). A change or cut given only in a name is not applied to a line headed by its entry.
UniProt P35968, whole entry: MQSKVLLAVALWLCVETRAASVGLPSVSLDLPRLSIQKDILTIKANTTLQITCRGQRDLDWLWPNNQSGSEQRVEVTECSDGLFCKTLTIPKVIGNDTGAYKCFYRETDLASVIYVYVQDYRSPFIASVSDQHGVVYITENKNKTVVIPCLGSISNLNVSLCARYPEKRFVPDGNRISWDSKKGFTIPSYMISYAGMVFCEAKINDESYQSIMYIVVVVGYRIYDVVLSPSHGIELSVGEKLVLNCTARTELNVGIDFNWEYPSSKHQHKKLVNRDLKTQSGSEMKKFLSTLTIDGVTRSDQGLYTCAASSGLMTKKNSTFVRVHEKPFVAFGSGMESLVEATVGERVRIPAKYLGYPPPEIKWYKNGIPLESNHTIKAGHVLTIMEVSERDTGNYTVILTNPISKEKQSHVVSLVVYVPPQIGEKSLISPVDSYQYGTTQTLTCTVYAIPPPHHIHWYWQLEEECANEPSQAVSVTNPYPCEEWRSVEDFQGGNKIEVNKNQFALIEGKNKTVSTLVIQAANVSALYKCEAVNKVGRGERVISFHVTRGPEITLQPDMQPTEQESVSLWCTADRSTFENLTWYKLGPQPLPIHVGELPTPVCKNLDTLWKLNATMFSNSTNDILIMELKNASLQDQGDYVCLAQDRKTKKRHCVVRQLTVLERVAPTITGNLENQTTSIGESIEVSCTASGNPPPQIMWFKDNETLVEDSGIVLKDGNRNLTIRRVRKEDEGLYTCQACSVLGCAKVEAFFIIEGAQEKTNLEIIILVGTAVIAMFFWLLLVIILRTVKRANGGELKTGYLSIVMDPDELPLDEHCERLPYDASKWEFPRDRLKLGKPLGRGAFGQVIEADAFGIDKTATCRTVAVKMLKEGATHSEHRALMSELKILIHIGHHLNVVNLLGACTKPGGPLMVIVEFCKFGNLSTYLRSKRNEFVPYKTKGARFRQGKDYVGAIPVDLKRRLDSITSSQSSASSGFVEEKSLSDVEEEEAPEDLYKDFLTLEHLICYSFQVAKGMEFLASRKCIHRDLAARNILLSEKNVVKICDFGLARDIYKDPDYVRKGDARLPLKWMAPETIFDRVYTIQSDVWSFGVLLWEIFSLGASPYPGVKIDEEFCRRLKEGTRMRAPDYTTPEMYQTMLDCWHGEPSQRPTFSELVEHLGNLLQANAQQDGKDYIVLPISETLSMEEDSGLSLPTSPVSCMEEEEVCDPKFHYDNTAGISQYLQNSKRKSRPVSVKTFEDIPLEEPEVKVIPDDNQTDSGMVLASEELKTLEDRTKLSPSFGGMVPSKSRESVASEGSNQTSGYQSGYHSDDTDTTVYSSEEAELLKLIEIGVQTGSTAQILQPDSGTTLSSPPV
UniProt P29597: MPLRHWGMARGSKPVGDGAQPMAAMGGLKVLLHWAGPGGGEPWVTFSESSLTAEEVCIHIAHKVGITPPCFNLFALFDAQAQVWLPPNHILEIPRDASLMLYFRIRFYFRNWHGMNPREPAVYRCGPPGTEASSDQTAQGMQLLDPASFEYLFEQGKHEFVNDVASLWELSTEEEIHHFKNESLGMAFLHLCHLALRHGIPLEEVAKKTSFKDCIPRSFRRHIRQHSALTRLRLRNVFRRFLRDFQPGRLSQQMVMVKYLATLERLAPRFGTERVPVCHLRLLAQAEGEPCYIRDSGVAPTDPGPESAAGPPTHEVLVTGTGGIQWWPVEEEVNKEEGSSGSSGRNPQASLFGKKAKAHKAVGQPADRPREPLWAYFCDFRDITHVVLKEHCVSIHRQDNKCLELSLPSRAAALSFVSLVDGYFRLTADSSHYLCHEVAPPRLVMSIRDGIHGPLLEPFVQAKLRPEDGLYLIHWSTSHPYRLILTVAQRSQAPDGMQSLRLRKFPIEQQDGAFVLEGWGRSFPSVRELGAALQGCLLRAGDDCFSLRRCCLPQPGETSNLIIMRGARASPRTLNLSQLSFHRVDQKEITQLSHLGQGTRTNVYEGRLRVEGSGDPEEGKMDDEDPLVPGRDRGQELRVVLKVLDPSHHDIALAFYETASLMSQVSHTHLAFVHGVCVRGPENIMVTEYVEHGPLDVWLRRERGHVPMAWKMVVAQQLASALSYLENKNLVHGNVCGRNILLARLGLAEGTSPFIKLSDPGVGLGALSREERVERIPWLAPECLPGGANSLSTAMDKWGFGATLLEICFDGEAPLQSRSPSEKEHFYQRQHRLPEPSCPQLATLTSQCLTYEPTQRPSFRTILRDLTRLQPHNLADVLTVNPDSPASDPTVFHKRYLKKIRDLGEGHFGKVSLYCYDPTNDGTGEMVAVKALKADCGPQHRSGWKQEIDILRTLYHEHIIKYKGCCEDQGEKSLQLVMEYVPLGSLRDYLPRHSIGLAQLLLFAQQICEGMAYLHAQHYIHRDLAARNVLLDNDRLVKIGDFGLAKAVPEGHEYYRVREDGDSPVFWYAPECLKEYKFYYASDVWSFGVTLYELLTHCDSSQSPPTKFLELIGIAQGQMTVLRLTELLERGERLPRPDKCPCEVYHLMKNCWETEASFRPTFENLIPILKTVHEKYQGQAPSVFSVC

| Compound | IC50 [1] [nM] | IC50 [2] [nM] |
| --- | --- | --- |
| CCc1cc(O)c(F)cc1-c1cc(NCCNC)c2nc(N)ncc2c1 | 2510 | – |
| CCc1cc(O)c(F)cc1-c1cc(NCCO)c2nc(N)ncc2c1 | 1580 | – |
| CC(=O)N1CCC(Nc2cccc3cnc(Nc4cnn(C)c4)nc23)CC1 | – | 100 |

Source: ChEMBL document CHEMBL5046242, “Investigation of Janus Kinase (JAK) Inhibitors for Lung Delivery and the Importance of Aldehyde Oxidase Metabolism” (J Med Chem, 2022)
